Measurements reported in patent publication US8772480B2, “Inhibitors of PI3 kinase and/or mTOR” (priority 2009, dated 2014).

Chains of the proteins cited; added tags and fusions are not shown.
UniProt P42336, whole entry: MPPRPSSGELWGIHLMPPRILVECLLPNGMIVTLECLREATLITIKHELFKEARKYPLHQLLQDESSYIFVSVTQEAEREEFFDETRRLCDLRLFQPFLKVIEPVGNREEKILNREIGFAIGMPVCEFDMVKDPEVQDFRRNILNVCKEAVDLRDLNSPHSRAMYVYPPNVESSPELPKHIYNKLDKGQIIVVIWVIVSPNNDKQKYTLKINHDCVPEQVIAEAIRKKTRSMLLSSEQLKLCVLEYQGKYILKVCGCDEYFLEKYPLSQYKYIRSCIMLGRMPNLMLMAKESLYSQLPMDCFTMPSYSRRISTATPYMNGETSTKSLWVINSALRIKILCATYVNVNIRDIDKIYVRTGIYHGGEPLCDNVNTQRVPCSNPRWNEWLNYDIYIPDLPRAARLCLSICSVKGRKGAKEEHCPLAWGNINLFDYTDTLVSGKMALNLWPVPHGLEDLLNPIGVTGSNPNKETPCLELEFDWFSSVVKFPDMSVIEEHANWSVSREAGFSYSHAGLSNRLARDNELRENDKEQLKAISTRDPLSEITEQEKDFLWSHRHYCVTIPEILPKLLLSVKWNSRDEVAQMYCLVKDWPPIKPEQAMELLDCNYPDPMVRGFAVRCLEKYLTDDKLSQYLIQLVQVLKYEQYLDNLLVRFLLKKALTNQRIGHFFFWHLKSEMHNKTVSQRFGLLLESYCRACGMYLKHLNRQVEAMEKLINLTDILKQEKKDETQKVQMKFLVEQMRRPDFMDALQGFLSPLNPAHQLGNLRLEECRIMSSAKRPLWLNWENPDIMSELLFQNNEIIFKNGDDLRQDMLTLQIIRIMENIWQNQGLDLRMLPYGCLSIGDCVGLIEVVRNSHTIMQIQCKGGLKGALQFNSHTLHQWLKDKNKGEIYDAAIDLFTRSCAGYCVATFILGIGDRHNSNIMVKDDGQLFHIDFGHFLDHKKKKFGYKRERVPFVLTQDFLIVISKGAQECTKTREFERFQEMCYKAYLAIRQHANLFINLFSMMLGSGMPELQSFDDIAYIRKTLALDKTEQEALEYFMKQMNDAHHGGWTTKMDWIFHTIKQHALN

Each molecule was assayed against PI3Kα (Homo sapiens (Human), UniProt P42336). Conditions: read-out: PI3Kα AlphaScreen ® Ki.

Row | Ki | SMILES
1 | 9 nM | COc1ccc(Nc2ncc(CNc3cccnc3)cc2-c2nc(C)nc3[nH]cnc23)cn1 [Example 79, N-(6-methoxypyridin-3-yl)-3-(2-methyl-9H-purin-6-yl)-5-((pyridin-3-ylamino)methyl)pyridin-2-amine]
2 | 2 nM | COc1ncc(Nc2ncc(C(C)N3CCN(S(C)(=O)=O)CC3)cc2-c2nc(C)nc(N)n2)cc1F (stereo not shown) [Example 143, 4-(2-(5-fluoro-6-methoxypyridin-3-ylamino)-5-(1-(4-(methylsulfonyl)piperazin-1-yl)ethyl)pyridin-3-yl)-6-methyl-1,3,5-triazin-2-amine]
3 | 4 nM | COc1ncc(Nc2ncc([C@H](C)N3CCN(S(C)(=O)=O)CC3)cc2-c2nc(C)nc(N)n2)cc1F [Example 147, (S)-4-(2-(5-Fluoro-6-Methoxypyridin-3-Ylamino)-5-(1-(4-(Methylsulfonyl)Piperazin-1-yl)Ethyl)Pyridin-3-yl)-6-Methyl-1,3,5-Triazin-2-Amine]
4 | 4 nM | COc1ncc(Nc2ncc([C@@H](C)N3CCN(S(C)(=O)=O)CC3)cc2-c2nc(C)nc(N)n2)cc1F [Example 148, (R)-4-(2-(5-Fluoro-6-Methoxypyridin-3-Ylamino)-5-(1-(4-(Methylsulfonyl)Piperazin-1-yl)Ethyl)Pyridin-3-yl)-6-Methyl-1,3,5-Triazin-2-Amine]
